Measured values reported in ChEMBL document CHEMBL2074434, “Interaction of cytochrome P450 3A inhibitors with P-glycoprotein” (J Pharmacol Exp Ther, 2002).

Protein sequences, listed by entry. Tags and fused reporters are not part of them.
UniProt P06795, whole entry: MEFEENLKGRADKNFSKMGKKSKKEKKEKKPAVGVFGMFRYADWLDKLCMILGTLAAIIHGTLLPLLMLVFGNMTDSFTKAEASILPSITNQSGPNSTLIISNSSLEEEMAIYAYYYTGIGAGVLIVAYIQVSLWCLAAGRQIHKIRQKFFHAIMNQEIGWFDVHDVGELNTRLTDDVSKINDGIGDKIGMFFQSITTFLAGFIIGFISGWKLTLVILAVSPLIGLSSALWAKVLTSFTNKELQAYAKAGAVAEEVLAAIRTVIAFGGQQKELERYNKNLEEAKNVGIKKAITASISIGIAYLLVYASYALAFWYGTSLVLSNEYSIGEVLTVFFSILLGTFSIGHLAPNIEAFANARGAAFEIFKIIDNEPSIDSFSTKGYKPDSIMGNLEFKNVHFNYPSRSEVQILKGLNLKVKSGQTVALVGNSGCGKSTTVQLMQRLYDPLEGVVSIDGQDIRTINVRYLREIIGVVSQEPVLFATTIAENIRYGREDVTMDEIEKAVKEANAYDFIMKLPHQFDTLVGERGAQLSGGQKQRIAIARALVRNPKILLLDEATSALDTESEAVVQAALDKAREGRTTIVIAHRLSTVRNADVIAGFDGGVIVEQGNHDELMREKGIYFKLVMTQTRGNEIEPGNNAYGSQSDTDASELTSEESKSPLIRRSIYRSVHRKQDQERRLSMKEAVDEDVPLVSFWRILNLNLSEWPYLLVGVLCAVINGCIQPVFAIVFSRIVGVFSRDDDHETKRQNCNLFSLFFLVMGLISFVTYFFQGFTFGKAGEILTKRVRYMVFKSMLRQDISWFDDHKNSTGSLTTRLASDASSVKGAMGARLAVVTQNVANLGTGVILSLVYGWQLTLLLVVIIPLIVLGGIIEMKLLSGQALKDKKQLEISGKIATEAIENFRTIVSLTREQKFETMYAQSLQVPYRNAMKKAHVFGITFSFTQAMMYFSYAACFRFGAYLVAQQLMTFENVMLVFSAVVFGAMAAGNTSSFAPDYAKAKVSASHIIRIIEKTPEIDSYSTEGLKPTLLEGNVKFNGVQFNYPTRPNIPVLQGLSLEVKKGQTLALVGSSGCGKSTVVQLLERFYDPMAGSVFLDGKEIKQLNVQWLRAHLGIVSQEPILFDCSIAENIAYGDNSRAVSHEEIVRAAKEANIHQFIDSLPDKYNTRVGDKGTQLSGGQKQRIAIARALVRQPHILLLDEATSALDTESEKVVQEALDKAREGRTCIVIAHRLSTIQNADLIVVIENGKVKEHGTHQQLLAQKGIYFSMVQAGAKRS

Target: ATP-dependent translocase ABCB1 (Mus musculus, UniProt P06795)
Experiment: TP_TRANSPORTER: increase in Calcein-AM intracellular accumulation in mdr1b-expressing LLC-PK1 cells
Type: functional, cell-based

Ki: > 1000 µM
Compound: CC[C@H]1OC(=O)[C@H](C)[C@@H](O[C@H]2C[C@@](C)(OC)[C@@H](O)[C@H](C)O2)[C@H](C)[C@@H](O[C@@H]2O[C@H](C)C[C@H](N(C)C)[C@H]2O)[C@](C)(O)C[C@@H](C)C(=O)[C@H](C)[C@@H](O)[C@]1(C)O [ERYTHROMYCIN]
